In paper PMC7878837, “Generation of Human-Induced Pluripotent Stem Cell-Derived Functional Enterocyte-Like Cells for Pharmacokinetic Studies” (Stem Cell Reports, 2021):

Tested on: BCRP and P-gp

| Compound | directional transport (B-to-A vs A-to-B) | effect on directional transport of [3H]-prazosin (20 μM elacridar) |
| --- | --- | --- |
| COc1cc2nc(N3CCN(C(=O)c4ccco4)CC3)nc(N)c2cc1OC [[^3H]-prazosin, prazosin] | exceeded its A-to-B transport | – |
| COc1cc2c(cc1OC)CN(CCc1ccc(NC(=O)c3cccc4c(=O)c5cccc(OC)c5[nH]c34)cc1)CC2 [elacridar] | – | partial inhibition of BCRP and P-gp |
